Activity change, negative = inhibition data for 56 molecules are collected here from PubChem BioAssay AID2662 (National Center for Advancing Translational Sciences (NCATS), 2010).

Chains of the proteins cited; added tags and fusions are not shown.
UniProt Q03164, whole entry, looked up: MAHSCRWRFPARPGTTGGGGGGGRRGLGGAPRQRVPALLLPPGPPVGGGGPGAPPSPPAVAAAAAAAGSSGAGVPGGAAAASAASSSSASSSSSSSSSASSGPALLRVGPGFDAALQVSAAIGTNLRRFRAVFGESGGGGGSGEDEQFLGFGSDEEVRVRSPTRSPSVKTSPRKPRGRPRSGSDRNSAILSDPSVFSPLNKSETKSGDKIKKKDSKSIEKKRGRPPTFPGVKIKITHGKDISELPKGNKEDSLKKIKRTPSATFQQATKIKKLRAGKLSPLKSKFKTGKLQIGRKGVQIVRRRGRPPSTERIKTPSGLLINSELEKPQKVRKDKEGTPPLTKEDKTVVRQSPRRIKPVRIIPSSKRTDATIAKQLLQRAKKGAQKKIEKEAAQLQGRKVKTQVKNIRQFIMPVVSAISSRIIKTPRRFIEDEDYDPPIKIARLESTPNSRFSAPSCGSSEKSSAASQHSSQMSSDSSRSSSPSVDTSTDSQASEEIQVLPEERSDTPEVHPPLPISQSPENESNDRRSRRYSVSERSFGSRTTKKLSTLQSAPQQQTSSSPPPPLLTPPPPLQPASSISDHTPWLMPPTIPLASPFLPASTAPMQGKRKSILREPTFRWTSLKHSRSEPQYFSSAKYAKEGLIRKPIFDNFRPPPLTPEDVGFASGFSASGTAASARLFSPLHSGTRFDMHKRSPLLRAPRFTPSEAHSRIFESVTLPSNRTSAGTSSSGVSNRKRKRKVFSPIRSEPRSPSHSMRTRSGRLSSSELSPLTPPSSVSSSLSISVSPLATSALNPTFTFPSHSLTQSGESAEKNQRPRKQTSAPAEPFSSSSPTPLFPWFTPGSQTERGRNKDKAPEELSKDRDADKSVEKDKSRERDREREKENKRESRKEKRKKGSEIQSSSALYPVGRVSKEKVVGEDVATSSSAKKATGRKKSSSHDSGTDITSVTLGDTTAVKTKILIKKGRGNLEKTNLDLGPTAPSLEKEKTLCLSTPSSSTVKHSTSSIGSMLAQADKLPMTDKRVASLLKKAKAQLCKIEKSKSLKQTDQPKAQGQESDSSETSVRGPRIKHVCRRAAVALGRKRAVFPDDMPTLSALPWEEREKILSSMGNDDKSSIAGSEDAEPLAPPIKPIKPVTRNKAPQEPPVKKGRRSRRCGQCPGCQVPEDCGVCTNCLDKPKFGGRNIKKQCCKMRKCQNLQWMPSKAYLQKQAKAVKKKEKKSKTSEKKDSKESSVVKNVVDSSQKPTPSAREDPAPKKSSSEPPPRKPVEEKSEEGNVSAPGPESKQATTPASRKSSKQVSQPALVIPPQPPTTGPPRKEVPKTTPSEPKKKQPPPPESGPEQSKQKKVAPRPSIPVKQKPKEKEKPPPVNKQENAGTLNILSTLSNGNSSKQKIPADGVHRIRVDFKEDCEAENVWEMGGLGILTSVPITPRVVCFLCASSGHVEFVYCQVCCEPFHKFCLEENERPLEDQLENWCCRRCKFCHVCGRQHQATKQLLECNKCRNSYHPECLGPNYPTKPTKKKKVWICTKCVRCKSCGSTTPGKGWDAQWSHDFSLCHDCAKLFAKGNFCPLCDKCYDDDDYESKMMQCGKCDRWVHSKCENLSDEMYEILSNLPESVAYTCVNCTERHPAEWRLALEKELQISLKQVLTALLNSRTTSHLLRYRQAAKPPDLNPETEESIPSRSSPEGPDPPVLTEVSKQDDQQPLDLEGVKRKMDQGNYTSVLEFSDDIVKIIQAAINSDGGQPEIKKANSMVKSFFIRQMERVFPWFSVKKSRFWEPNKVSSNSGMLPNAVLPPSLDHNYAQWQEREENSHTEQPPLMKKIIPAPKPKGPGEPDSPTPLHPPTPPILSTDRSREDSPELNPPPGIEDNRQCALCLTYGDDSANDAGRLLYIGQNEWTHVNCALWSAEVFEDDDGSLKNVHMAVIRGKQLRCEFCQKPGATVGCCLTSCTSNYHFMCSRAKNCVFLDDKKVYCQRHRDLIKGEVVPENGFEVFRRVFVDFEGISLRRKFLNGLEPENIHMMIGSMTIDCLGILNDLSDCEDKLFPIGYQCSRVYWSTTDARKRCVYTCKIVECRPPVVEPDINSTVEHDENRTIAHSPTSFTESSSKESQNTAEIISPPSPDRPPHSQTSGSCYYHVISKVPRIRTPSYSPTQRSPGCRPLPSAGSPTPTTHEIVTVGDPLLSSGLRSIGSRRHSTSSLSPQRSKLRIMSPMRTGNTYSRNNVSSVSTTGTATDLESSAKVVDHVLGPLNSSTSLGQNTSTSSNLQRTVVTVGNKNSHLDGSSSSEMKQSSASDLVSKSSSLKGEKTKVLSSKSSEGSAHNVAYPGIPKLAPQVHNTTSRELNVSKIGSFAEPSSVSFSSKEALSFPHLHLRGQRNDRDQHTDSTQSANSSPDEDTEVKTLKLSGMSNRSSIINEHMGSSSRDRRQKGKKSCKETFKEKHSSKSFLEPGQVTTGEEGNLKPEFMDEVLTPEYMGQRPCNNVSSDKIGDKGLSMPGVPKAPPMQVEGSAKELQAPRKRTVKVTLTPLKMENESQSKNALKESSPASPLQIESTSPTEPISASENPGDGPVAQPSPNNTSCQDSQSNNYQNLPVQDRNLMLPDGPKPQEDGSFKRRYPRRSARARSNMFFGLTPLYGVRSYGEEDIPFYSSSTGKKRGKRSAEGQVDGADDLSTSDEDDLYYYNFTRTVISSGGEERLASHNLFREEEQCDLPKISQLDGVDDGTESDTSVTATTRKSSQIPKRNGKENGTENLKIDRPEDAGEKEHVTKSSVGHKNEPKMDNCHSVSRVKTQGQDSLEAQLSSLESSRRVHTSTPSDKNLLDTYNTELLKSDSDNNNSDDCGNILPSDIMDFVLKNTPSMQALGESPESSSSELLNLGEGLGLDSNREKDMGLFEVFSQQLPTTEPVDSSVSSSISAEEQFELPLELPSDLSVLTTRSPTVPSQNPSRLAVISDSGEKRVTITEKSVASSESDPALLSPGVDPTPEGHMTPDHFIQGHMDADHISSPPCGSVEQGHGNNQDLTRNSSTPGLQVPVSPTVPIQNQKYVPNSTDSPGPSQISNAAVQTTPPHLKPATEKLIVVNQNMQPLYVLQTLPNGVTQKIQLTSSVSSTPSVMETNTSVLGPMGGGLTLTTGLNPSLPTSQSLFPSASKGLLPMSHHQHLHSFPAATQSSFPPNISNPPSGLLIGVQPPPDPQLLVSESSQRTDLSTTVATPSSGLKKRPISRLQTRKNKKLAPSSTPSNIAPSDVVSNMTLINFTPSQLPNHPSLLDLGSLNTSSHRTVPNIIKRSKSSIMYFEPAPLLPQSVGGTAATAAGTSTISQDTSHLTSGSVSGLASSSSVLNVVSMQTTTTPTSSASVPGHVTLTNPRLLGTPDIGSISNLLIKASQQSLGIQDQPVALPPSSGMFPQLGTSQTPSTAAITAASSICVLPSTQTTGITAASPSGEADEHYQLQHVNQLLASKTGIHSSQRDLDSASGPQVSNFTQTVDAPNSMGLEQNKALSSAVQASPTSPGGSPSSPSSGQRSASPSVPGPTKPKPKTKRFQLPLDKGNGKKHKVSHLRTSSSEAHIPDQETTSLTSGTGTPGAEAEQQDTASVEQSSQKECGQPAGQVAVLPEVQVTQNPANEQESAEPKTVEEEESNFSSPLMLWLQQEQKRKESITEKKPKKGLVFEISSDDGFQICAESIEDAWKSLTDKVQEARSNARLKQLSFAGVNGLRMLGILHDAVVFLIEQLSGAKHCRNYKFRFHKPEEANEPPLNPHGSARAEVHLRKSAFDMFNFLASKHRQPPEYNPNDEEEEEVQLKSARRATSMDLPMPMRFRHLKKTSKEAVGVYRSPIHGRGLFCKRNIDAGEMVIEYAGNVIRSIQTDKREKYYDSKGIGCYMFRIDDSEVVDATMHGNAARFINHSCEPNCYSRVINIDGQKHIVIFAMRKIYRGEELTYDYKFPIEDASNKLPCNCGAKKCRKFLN

Structures are written as SMILES. Values joined by “and” are separate entries in the source; they are usually repeats but may differ in a detail not shown here. Equal values may be shown once. Only a part is listed here, and it is no random draw. Active and inactive are the calls of the source. Calls follow the shape of the dose curve; as a rule, active = well fitted inhibition curve with a large enough effect in the polarisation, with a control signal flat (not every such curve was filed as active); inconclusive = small, poorly fitted or top-dose-only effect, or effect the other way, or a change in a side signal; inactive = no such curve, though single readings can be large or run the other way; the % refers to the polarisation.

In the assay the target is Histone-lysine N-methyltransferase 2A (Homo sapiens) (UniProt Q03164). As to the kind of experiment: qHTS Fluorescence Polarization Assay for Inhibitors of MLL CXXC domain - DNA interaction. The following applies: MLL-CXXC / FITC-HOXA9 DNA fluorescence polarization; at 115 µM (top of the series).
In the case of `O=[As](O)(c1ccccc1Br)c1ccccc1Br`, the activity change, negative = inhibition is inactive: -4.98%. Take `Clc1n[nH]nc1-c1nn[nH][15n]1`: the activity change, negative = inhibition was inactive: -6.27%.

With `CC(C)(C)C(=O)NC(Sc1ncccn1)C(Cl)(Cl)Cl` (stereo unspecified), the activity change, negative = inhibition is inactive: 3.38%. The result for `CCC1=CC2Cc3nc4ccc(Cl)cc4c(N)c3C(C1)C2` (stereo unspecified) reads inactive: 39.5%; that for `O=P1(Nc2ccccn2)COc2ccccc2OC1`, inactive: 8.98%; that for `CCOP(=O)(NC(=NC(C)c1ccccc1)NC(C)c1ccccc1)OCC` (stereo unspecified), inactive: -6.58%. Under `CCOP(=O)(Nc1ccc(C)cn1)OCC` stands inactive: -4.83%; under `CN(CCCl)Cc1cc(Cl)c(NC2=NCCN2)c(Cl)c1`, inactive: 3.67%. Under `COc1cc(C2NCCC3(OCCO3)C2(C)C)cc(OC)c1OC` (stereo unspecified) stands inactive: 5.61%; under `CCOP(=O)(Nc1cccc2ccccc12)OCC`, inactive: 1.71%. Consider `Cc1ccc(NCCc2c([N+](=O)[O-])cc([N+](=O)[O-])cc2[N+](=O)[O-])cc1`, for which the activity change, negative = inhibition is inactive: -5.15%. Under `Nc1cccc2c([As](=O)(O)O)cccc12` stands inactive: -6.36%; under `CCCOP(=S)(Nc1nc(N)cc(=O)[nH]1)OCCC`, inactive: -3.66%; under `Cc1cccc(OCC(=O)OC2CN3CCC2CC3)c1` (stereo unspecified), inactive: 7.41%. Under `O=[As](O)(c1cccc(O)c1)c1cccc(O)c1` stands inactive: 52.1%. `O=C(OC1CN2CCC1CC2)c1ccc(Cl)cc1` (stereo unspecified): the activity change, negative = inhibition was inactive: -1.2%.

Turning to `CN(C(=O)Cc1ccc(Cl)c(Cl)c1)[C@@H]1CC[C@]2(CCCO2)C[C@H]1N1CCCC1`, the activity change, negative = inhibition was inactive: -21.3%. Under `O=[As](O)(O)c1cccnc1` stands inactive: -1.04%; under `COc1cc(C(=O)NCC2(N3CCOCC3)CCCCC2)cc(Cl)c1OC(C)C`, inactive: -13%. The result for `CS(=O)(=O)c1ccc(Cl)c(NC(=O)COC(=O)C(O)(c2ccccc2)c2ccccc2)c1` reads inactive: 8.22%; that for `CN(C(=O)Cc1ccccc1)[C@@H]1CC[C@]2(CCCO2)C[C@H]1N1CCCC1`, inactive: 5.05% and inactive: 16%; that for `CCOP1(=S)c2c(C)nn(CCC#N)c2N=C(c2ccc(F)cc2)N1C` (stereo unspecified), inactive: 5.83%. As to `O=[N+]([O-])c1ccc2c(c1)nnn2O`, the activity change, negative = inhibition was inactive: 3.04%. Under `NC(=O)Nc1ccc([As](=O)(O)O)cc1` stands inactive: -0.126%; under `Nc1ccccc1[As](=O)(O)c1ccccc1`, inactive: 4.66%; under `CCOP1(=S)c2c(C)nn(CCC#N)c2N=C(c2ccccc2F)N1C` (stereo unspecified), inactive: 1.33%.

For the molecule `O=P(Nc1nccs1)(Oc1ccccc1)Oc1ccccc1`, the activity change, negative = inhibition was inactive: 10.2%. Under `O=P(Nc1nccs1)(c1ccccc1)c1nc2ccccc2s1` (stereo unspecified) stands inactive: -11.2%. Turning to `CC(C)NC(=O)NP(=O)(Oc1ccccc1)Oc1ccccc1`, the activity change, negative = inhibition is inactive: 7.81%. With `CCN(CC)C(=S)SC(NC=O)C(Cl)(Cl)Cl` (stereo unspecified), the activity change, negative = inhibition was inactive: -15.4%. Under `O=[N+]([O-])c1cc([N+](=O)[O-])c(-c2ccn[nH]2)s1` stands inactive: 1.52%; under `ClCCSc1nnc(-c2cccnc2)o1`, inactive: 1.19%. Turning to `CC(C)c1ccc(OP(=O)(Nc2ccccn2)Oc2ccccc2F)cc1` (stereo unspecified), the activity change, negative = inhibition was inactive: 10.9%. The result for `Cc1ccc(OP(=O)(Nc2ccc([N+](=O)[O-])cn2)Oc2ccc(C)cc2)cc1` reads inactive: 5.87%; that for `Cc1ccc2nc3c(c(C)c2c1)CC(C(Cl)Cl)S3` (stereo unspecified), inactive: 6.13%; that for `C[As](=O)(O)c1cccc(C(=O)O)c1`, inactive: -2.63%.

`O=[As](O)(c1ccc(O)cc1)c1ccccc1O`: the activity change, negative = inhibition was inactive: -3.18%. The result for `COc1ccc(N/C(=N/P(=O)(N2CCOCC2)N2CCOCC2)N2CCOCC2)cc1` reads inactive: -2.93%; that for `COc1ccc2nc(NP(=O)(c3ccccc3)c3ccccc3)sc2c1`, inactive: 2.24%.

As to `COc1cc(I)ccc1[As](=O)(O)O`, the activity change, negative = inhibition is inactive: -14.4%. The result for `Cc1c2c(nc3ccccc13)SC(C(Cl)Cl)C2` (stereo unspecified) reads inactive: 8.32%; that for `O=C(OC1CN2CCC1CC2)C12CC3CC(CC(C3)C1)C2` (stereo unspecified), inactive: 4.14%; that for `Cc1cc(=O)[nH]c(N[N+](=O)[O-])n1`, inactive: -4.33%.

As for `CCC(C)N(CC(C)C)C(=S)SC(NC(C)=O)C(Cl)(Cl)Cl` (stereo unspecified), the activity change, negative = inhibition was inactive: 26.6%. The result for `O=C(OC1CN2CCC1CC2)c1cccc([N+](=O)[O-])c1` (stereo unspecified) reads inactive: 1.56%; that for `CCOC(=O)c1ccc(NC(=O)C(C)(CCl)SC)cc1` (stereo unspecified), inactive: 14.3%; that for `O=C(COc1ccccc1)OC1CN2CCC1CC2` (stereo unspecified), inactive: -2.62%.

Consider `O=C(Nc1ccncc1[N+](=O)[O-])c1ccc([N+](=O)[O-])cc1[N+](=O)[O-]`, for which the activity change, negative = inhibition is inactive: 2.15%. The result for `COP1(=S)c2c(C)nn(CCC#N)c2N=C(c2ccc(F)cc2)N1C` (stereo unspecified) reads inactive: -1.72%.

For `Cc1cc(SC(NC=O)C(Cl)(Cl)Cl)ncn1` (stereo unspecified), the activity change, negative = inhibition was inactive: 7.32%.

With `O=P(Nc1ccccn1)(c1cccc2ccccc12)c1cccc2ccccc12`, the activity change, negative = inhibition is inactive: -5.14%. Take `O=[N+]([O-])c1ccc(Nc2ccc(Oc3ccc([N+](=O)[O-])cc3[N+](=O)[O-])cc2)c([N+](=O)[O-])c1`: the activity change, negative = inhibition was inactive: -1.07%. Turning to `CCOC(=O)Nc1cccc([As](=O)(O)O)c1`, the activity change, negative = inhibition is inactive: -0.731%. The result for `CCCCOc1ccc(C(=O)NCC2(N3CCCCC3)CCCCC2)cc1OC` reads inactive: 8.42%.

For the molecule `Cc1cc(SC(NC(=O)c2ccccc2)C(Cl)(Cl)Cl)nc(C(C)C)n1` (stereo unspecified), the activity change, negative = inhibition is inactive: -0.568%.

As to `CCOC(=O)Nc1ccc([As](=O)(O)O)c(O)c1`, the activity change, negative = inhibition was inactive: -5.02%.
